## scFv variants of Ab-91 (heavy chain) against a SARS-CoV-2 spike peptide

Binding partner: SARS-CoV-2 spike HR2 peptide, sequence PDVDLGDISGINAS.

Each scFv is VL, the linker GGGGSGGGGSGGGGS, VH, as in the parent Ab-91, and differs from it in the CDRs of the heavy chain only.
VL: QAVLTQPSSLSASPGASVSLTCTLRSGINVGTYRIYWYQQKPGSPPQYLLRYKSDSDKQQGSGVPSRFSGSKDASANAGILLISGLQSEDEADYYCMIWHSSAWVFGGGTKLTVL
VH: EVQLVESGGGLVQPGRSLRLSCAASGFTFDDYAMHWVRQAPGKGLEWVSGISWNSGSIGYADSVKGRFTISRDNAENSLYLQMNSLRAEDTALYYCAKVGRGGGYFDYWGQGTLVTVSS

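Phage display of a naive human antibody library on the peptide gave the parent. The library (AAYL51) carries one to three amino acid substitutions per variant, with no insertions or deletions. The scFvs were displayed on barcoded MATa yeast, the peptide on MATalpha yeast. After mating in shaken culture at 30 °C for 16 h, diploids were selected and their barcode pairs sequenced. A regression on co-assayed BCL2-family reference pairs converts the normalised counts of each replicate to an apparent Kd. Each pool was mated in three replicate cultures.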

Sequences are complete VH domains.
Numbers give log10(Kd / nM), so 0 is 1 nM and 3 is 1 µM. Smaller is tighter.
A mean of the replicates is given; it leaves out those without a signal.
A pair that was not seen in that replicate is written "ND"; this usually means weak binding, but a binder can also be missed.
Empty control strains, which show no peptide, gave a signal in 21% of pairings with library AAYL51; the median was 4.54 and 95% of these signals were weaker than 3.26. No background was subtracted. For each scFv, signals with the empty controls are counted beside the result, with their mean in brackets.

{"VH": "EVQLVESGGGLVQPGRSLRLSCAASGFTFDDYAMHWVRQAPGKGLEWVSGILWNSGSIGYAPRVKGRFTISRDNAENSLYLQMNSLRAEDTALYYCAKVGRGGGYFDYWGQGTLVTVSS", "log10 Kd (nM) by replicate": "ND / ND / ND", "log10 Kd (nM), mean": "ND", "control signals": "0/9"}
{"VH": "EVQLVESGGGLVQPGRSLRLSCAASGFTFDDYAMCWVRQAPGKGLEWVSGISWNMGSIGYADSVKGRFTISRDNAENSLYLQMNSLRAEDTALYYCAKVGPGGGYFDYWGQGTLVTVSS", "log10 Kd (nM) by replicate": "ND / ND / ND", "log10 Kd (nM), mean": "ND", "control signals": "0/9"}
{"VH": "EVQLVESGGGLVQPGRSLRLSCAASGFTFDDYAMHWVRQAPGKGLEWVSGISWRSGSIGYAPSVKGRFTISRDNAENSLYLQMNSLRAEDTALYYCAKVHRGGGYFDYWGQGTLVTVSS", "log10 Kd (nM) by replicate": "ND / ND / ND", "log10 Kd (nM), mean": "ND", "control signals": "0/9"}
{"VH": "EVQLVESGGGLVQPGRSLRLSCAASHFIFDDYAMHWVRQAPGKGLEWVSRISWNSGSIGYADSVKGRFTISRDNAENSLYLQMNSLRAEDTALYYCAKVGRGGGYFDYWGQGTLVTVSS", "log10 Kd (nM) by replicate": "ND / ND / ND", "log10 Kd (nM), mean": "ND", "control signals": "0/9"}
{"VH": "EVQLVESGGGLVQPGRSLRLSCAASGFTFDDYAMHWVRQAPGKGLEWVSGISWNSGSIGYADSVKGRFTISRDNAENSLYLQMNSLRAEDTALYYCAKVGHGGLYFDYWGQGTLVTVSS", "log10 Kd (nM) by replicate": "ND / ND / ND", "log10 Kd (nM), mean": "ND", "control signals": "0/9"}
{"VH": "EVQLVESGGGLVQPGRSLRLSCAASGYTFDDYAMHWVRQAPGKGLEWVSGISWNSGHILYADSVKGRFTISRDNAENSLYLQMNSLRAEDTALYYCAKVGRGGGYFDYWGQGTLVTVSS", "log10 Kd (nM) by replicate": "5.40 / 5.01 / 5.65", "log10 Kd (nM), mean": "5.35", "control signals": "7/9 (4.63)"}
{"VH": "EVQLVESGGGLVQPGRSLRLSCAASGFTFDDYAMHWVRQAPGKGLEWVSEIYENSGSIGYADSVKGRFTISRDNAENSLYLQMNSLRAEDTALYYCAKVGRGGGYFDYWGQGTLVTVSS", "log10 Kd (nM) by replicate": "ND / ND / ND", "log10 Kd (nM), mean": "ND", "control signals": "1/9 (3.55)"}
{"VH": "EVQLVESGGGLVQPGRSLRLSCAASGPQRDDYAMHWVRQAPGKGLEWVSGISWNSGSIGYADSVKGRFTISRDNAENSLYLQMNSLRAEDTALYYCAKVGRGGGYFDYWGQGTLVTVSS", "log10 Kd (nM) by replicate": "4.54 / ND / ND", "log10 Kd (nM), mean": "4.54", "control signals": "0/9"}
{"VH": "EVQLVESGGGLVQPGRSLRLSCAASGFTFDIYAMHWVRQAPGKGLEWVSGISANTGSIGYADSVKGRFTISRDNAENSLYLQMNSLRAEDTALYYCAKVGRGGGYFDYWGQGTLVTVSS", "log10 Kd (nM) by replicate": "ND / 4.08 / ND", "log10 Kd (nM), mean": "4.08", "control signals": "1/9 (4.17)"}
{"VH": "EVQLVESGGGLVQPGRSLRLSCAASGFYFDDYAMHWVRQAPGKGLEWVSGISWNSGSIGYADSVTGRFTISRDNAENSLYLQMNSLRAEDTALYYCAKPGRGGGYFDYWGQGTLVTVSS", "log10 Kd (nM) by replicate": "ND / ND / ND", "log10 Kd (nM), mean": "ND", "control signals": "2/9 (3.65)"}
{"VH": "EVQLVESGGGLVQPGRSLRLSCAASGFTFDKYAMHWVRQAPGKGLEWVSGMSWNSGSPGYADSVKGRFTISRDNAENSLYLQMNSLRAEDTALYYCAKVGRGGGYFDYWGQGTLVTVSS", "log10 Kd (nM) by replicate": "ND / ND / ND", "log10 Kd (nM), mean": "ND", "control signals": "1/9 (3.91)"}
{"VH": "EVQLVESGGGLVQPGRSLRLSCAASGFTFDDYAMHWVRQAPGKGLEWVSGISWNSGSIGYAPIVKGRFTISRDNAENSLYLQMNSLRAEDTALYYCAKVGRGCGYFDYWGQGTLVTVSS", "log10 Kd (nM) by replicate": "ND / ND / ND", "log10 Kd (nM), mean": "ND", "control signals": "1/9 (5.08)"}
{"VH": "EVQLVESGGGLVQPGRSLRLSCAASGFTFDDYGMDWVRQAPGKGLEWVSGISKNSGSIGYADSVKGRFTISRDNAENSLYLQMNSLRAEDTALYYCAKVGRGGGYFDYWGQGTLVTVSS", "log10 Kd (nM) by replicate": "5.14 / 3.90 / 4.88", "log10 Kd (nM), mean": "4.64", "control signals": "4/9 (4.79)"}
{"VH": "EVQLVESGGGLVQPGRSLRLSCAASGFTFDDYAMHWVRQAPGKGLEWVSGISWNSYSIGDADSVKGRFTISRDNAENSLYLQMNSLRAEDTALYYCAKVGRGGGGFDYWGQGTLVTVSS", "log10 Kd (nM) by replicate": "ND / ND / ND", "log10 Kd (nM), mean": "ND", "control signals": "2/9 (3.63)"}
{"VH": "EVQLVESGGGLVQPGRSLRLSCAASGFTFDDYAHHWVRQAPGKGLEWVSGNSWNSGSIGYADSVKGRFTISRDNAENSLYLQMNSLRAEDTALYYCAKVGRGGGCFDYWGQGTLVTVSS", "log10 Kd (nM) by replicate": "ND / ND / ND", "log10 Kd (nM), mean": "ND", "control signals": "0/9"}
{"VH": "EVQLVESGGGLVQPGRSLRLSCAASGFTFDIYAMHWVRQAPGKGLEWVSGISWNSGSEGYADSVKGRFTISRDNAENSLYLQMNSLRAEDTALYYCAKVGRGWGYFDYWGQGTLVTVSS", "log10 Kd (nM) by replicate": "ND / ND / ND", "log10 Kd (nM), mean": "ND", "control signals": "3/9 (4.80)"}
{"VH": "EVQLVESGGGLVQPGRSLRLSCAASGFTFDDYAMHWVRQAPGKGLEWVSGICWNSGSIGCADSVKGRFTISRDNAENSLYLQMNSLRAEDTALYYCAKVGRGGGHFDYWGQGTLVTVSS", "log10 Kd (nM) by replicate": "ND / 4.49 / ND", "log10 Kd (nM), mean": "4.49", "control signals": "0/9"}
{"VH": "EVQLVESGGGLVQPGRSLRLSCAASGFTSDDYAMHWVRQAPGKGLEWVSGISWNSGSIGYADSTKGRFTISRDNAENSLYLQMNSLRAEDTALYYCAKVGRGGGYKDYWGQGTLVTVSS", "log10 Kd (nM) by replicate": "3.96 / ND / ND", "log10 Kd (nM), mean": "3.96", "control signals": "0/9"}
{"VH": "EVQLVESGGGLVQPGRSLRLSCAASGFTFDDYAMHWVRQAPGKGLEWVSGISWNTGCIHYADSVKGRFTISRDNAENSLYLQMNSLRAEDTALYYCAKVGRGGGYFDYWGQGTLVTVSS", "log10 Kd (nM) by replicate": "ND / ND / ND", "log10 Kd (nM), mean": "ND", "control signals": "0/9"}
{"VH": "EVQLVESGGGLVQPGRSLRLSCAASGFTFDDYAMHWVRQAPGKGLEWVSGISWNSGSIGRAMSVHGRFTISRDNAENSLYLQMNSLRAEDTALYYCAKVGRGGGYFDYWGQGTLVTVSS", "log10 Kd (nM) by replicate": "ND / ND / ND", "log10 Kd (nM), mean": "ND", "control signals": "2/9 (4.53)"}
{"VH": "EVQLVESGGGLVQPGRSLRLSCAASGFTFDDYRMYWVRQAPGKGLEWVSGISWNSGSIGRADSVKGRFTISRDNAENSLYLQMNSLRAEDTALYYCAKVGRGGGYFDYWGQGTLVTVSS", "log10 Kd (nM) by replicate": "ND / ND / ND", "log10 Kd (nM), mean": "ND", "control signals": "0/9"}

From the list, the first 2 with no signal in any replicate:

{"VH": "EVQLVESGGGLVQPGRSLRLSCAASGFTFDDYAMHWVRQAPGKGLEWVSGILWNSGSIGYAPRVKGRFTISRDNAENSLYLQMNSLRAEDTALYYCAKVGRGGGYFDYWGQGTLVTVSS", "log10 Kd (nM) by replicate": "ND / ND / ND", "log10 Kd (nM), mean": "ND", "control signals": "0/9"}
{"VH": "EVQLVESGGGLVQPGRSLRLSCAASGFTFDDYAMCWVRQAPGKGLEWVSGISWNMGSIGYADSVKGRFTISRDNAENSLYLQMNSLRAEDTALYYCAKVGPGGGYFDYWGQGTLVTVSS", "log10 Kd (nM) by replicate": "ND / ND / ND", "log10 Kd (nM), mean": "ND", "control signals": "0/9"}

Values reported by Engelhart et al. 2022, doi:10.1038/s41597-022-01779-4 (FLAb copy).